Values quoted from earlier work in publication PMC3204214 (Proteins, 2011).

Biological target: melittin (Apis mellifera) (UniProt P01501)
Details: cited from earlier work

Substance: apo-calmodulin (from UniProt P0DP23)
- Kd: 10 µM
